Laboratory results from PubChem BioAssay AID2012 (Sanford-Burnham Center for Chemical Genomics, 2009).
Where “and” joins values, the source holds several entries; their conditions need not be identical. Equal values may be shown once. This is a selection; strong and weak results do not stand in their true shares. Calls of active or inactive are those of the source. The rule behind the calls is not given here.

The compounds below were run against Eukaryotic translation initiation factor 4H (Homo sapiens) (UniProt Q15056) (assay: eIF4H binding inhibition – biochemical, uHTS, fluorescence polarization, translation initiation inhibitor project, primary screen (AID 2012)). Settings: eIF4H fluorescence polarization binding assay; at 35 µM; stronger effect = higher value.
`Clc1ccc(Cl)c(NC2=NCC(CBr)S2)c1` (stereo unspecified) was tested, and the inhibition was inactive: -2.8%.
`CN(C)CCOC(=O)C(O)(c1ccccc1)C1CCCC1` (stereo unspecified) was tested, and the inhibition was inactive: 2.8%.
In the case of `Cc1nc2ccc3ccccc3c2o1.O=[N+]([O-])c1cc([N+](=O)[O-])c(O)c([N+](=O)[O-])c1`, the inhibition was inactive: 10.1%.
In the case of `CCN(N=Nc1nonc1N)c1nonc1N`, the inhibition was inactive: -3.6%.
In the case of `CP(=O)(Nc1ccc(Cl)cc1Cl)Oc1ccccc1` (stereo unspecified), the inhibition was inactive: -1.3%.
For `CP(=O)(OCCOc1ccccc1)OCCOc1ccccc1`, the inhibition was inactive: 2.9%.
With `CC(=O)Nc1ccc([As](=O)(O)O)cc1` the inhibition was inactive: 1.9%.
`O=C(O)c1ccccc1[As](=O)(O)O` was tested, and the inhibition was inactive: 0.2%.
With `O=P(Nc1nc2ccc(Cl)cc2s1)(c1ccccc1)c1ccccc1` the inhibition was inactive: 12.8%.
`Cc1cc(C)cc(OP(C)(=O)Nc2cccc(C(F)(F)F)c2)c1` (stereo unspecified) was tested, and the inhibition was inactive: -6.2%.
With `COc1ccccc1OP(C)(=O)Nc1ccc(C)c(C)c1` (stereo unspecified) the inhibition was inactive: 3.4%.
For `Cc1ccc(NP(=O)(Oc2ccccc2F)Oc2ccccc2F)nc1`, the inhibition was inactive: 1.8%.
For `Cc1cc(SC(NC(=O)c2ccc(F)cc2)C(Cl)(Cl)Cl)ncn1` (stereo unspecified), the inhibition was inactive: -2%.
With `CCOP(=O)(Nc1ccccc1)OCC` the inhibition was inactive: -6% and inactive: 10.1%.
With `COc1ccc(OP(C)(=O)Nc2ccccc2Br)cc1` (stereo unspecified) the inhibition was inactive: -2.9%.
For `Cc1ccc(NP(C)(=O)Oc2ccccc2)c(C)c1` (stereo unspecified), the inhibition was inactive: -3.1%.
For `CC(C)c1ccc(OP(=O)(Nc2ccccn2)Oc2ccccc2F)cc1` (stereo unspecified), the inhibition was inactive: 4.8%.
With `COc1ccccc1OP(C)(=O)Nc1ccc(C)cc1` (stereo unspecified) the inhibition was inactive: -13.4%.
In the case of `ClCCSc1nnc(-c2cccnc2)o1`, the inhibition was inactive: -9.5%.
In the case of `CCOC(=O)c1ccc(NP(C)(=O)Oc2ccccc2)cc1` (stereo unspecified), the inhibition was inactive: -6.6%.
`Cc1cc(C)cc(OP(C)(N)=O)c1` (stereo unspecified) was tested, and the inhibition was inactive: -7.9%.
In the case of `COc1ccc(OP(C)(=O)Nc2cccc(F)c2)cc1` (stereo unspecified), the inhibition was inactive: 4.9%.
For `COc1ccccc1OP(C)(=O)Nc1cc(Cl)ccc1C` (stereo unspecified), the inhibition was inactive: 2.5%.
`CC(C)NC(=O)NP(=O)(Oc1ccccc1)Oc1ccccc1` was tested, and the inhibition was inactive: -2.3%.
With `CCN(CC)C(=S)SC(NC=O)C(Cl)(Cl)Cl` (stereo unspecified) the inhibition was inactive: -12.5%.
With `O=[As](O)(c1ccc(O)cc1)c1ccccc1O` the inhibition was inactive: 5.8%.
In the case of `C[As](=O)(O)c1cccc(C(=O)O)c1`, the inhibition was inactive: 3.3%.
In the case of `O=[N+]([O-])c1ccc2c(c1)C=Nc1ccccc1O2`, the inhibition was inactive: -12.7%.
`Cc1ccc2nc3c(c(C)c2c1)CC(C(Cl)Cl)S3` (stereo unspecified) was tested, and the inhibition was inactive: 0.2%.
With `Cc1cccc(C)c1OP(C)(N)=O` (stereo unspecified) the inhibition was inactive: 1.3%.
For `Cc1ccc(OP(=O)(Nc2ccc([N+](=O)[O-])cn2)Oc2ccc(C)cc2)cc1`, the inhibition was inactive: 3.9%.
For `CC(C)(C)c1ccc(OP(C)(=O)Nc2ccc(SC(F)(F)F)cc2)cc1` (stereo unspecified), the inhibition was inactive: 1.6%.
In the case of `COc1ccc(N/C(=N/P(=O)(N2CCOCC2)N2CCOCC2)N2CCOCC2)cc1`, the inhibition was inactive: -5.3%.
`Cc1cc(=O)[nH]c(N[N+](=O)[O-])n1` was tested, and the inhibition was inactive: -10.9%.
In the case of `CCN(CC)CCCOC(=O)C(O)(c1ccccc1)c1ccccc1`, the inhibition was inactive: -9%.
In the case of `O=C(OC1CN2CCC1CC2)C12CC3CC(CC(C3)C1)C2` (stereo unspecified), the inhibition was inactive: -10.9%.
With `Cc1c2c(nc3ccccc13)SC(C(Cl)Cl)C2` (stereo unspecified) the inhibition was inactive: 4.5%.
In the case of `COc1cc(I)ccc1[As](=O)(O)O`, the inhibition was inactive: 0.6%.
In the case of `COc1ccc2nc(NP(=O)(c3ccccc3)c3ccccc3)sc2c1`, the inhibition was inactive: 9.5%.
With `CCOC(=O)c1ccc(NP(C)(=O)Oc2ccc(OC)cc2)cc1` (stereo unspecified) the inhibition was inactive: -1%.
`CCOC(=O)c1ccc(NC(=O)C(C)(CCl)SC)cc1` (stereo unspecified) was tested, and the inhibition was inactive: -9.5%.
In the case of `O=C(OC1CN2CCC1CC2)c1cccc([N+](=O)[O-])c1` (stereo unspecified), the inhibition was inactive: 6.1%.
For `CCOP(C)(=S)SCC(=O)NC(C)C(=O)O` (stereo unspecified), the inhibition was inactive: -3.8%.
For `CP(=O)(Nc1ccccn1)Oc1ccc(Cl)cc1` (stereo unspecified), the inhibition was inactive: 0.8%.
In the case of `CCC(C)N(CC(C)C)C(=S)SC(NC(C)=O)C(Cl)(Cl)Cl` (stereo unspecified), the inhibition was inactive: -7.7%.
In the case of `CP(=O)(Oc1ccccc1)OC(c1ccccc1)C(F)(F)F` (stereo unspecified), the inhibition was inactive: 1.5%.
With `COP1(=S)c2c(C)nn(CCC#N)c2N=C(c2ccc(F)cc2)N1C` (stereo unspecified) the inhibition was inactive: 10.7%.
`Cc1cccc(C)c1OP(C)(=O)Nc1ccc(SC(F)(F)F)cc1` (stereo unspecified) was tested, and the inhibition was inactive: -8.6%.
For `CP(=O)(Nc1ccc(SC(F)(F)F)cc1)Oc1ccc(Cl)cc1` (stereo unspecified), the inhibition was inactive: -8.4%.
In the case of `Cc1cc(C)cc(OP(C)(=O)Nc2ccc(SC(F)(F)F)cc2)c1` (stereo unspecified), the inhibition was inactive: -0.9%.
For `O=C(Nc1ccncc1[N+](=O)[O-])c1ccc([N+](=O)[O-])cc1[N+](=O)[O-]`, the inhibition was inactive: 3.6%.
`O=C(COc1ccccc1)OC1CN2CCC1CC2` (stereo unspecified) was tested, and the inhibition was inactive: 7.5%.
For `CP(=O)(NC(=O)Nc1ccccc1)Oc1ccccc1` (stereo unspecified), the inhibition was inactive: -8.1%.
`CCc1ccc(OP(C)(=O)N2CCN(c3ccc([N+](=O)[O-])cc3)CC2)cc1` (stereo unspecified) was tested, and the inhibition was inactive: -3.3%.
For `CCOC(=O)Nc1cccc([As](=O)(O)O)c1`, the inhibition was inactive: 3.9%.
`CP(=S)(Nn1cnnc1)Oc1ccccc1` (stereo unspecified) was tested, and the inhibition was inactive: 2.5%.
In the case of `O=[N+]([O-])c1ccc(Nc2ccc(Oc3ccc([N+](=O)[O-])cc3[N+](=O)[O-])cc2)c([N+](=O)[O-])c1`, the inhibition was inactive: 4.3%.
With `CP(=O)(Nc1ccccc1Br)Oc1ccccc1` (stereo unspecified) the inhibition was inactive: 6.9%.
In the case of `COc1ccccc1OP(C)(=O)Nc1ccccc1` (stereo unspecified), the inhibition was inactive: 2.3%.
In the case of `O=P(Nc1ccccn1)(c1cccc2ccccc12)c1cccc2ccccc12`, the inhibition was inactive: -3.3%.
In the case of `Cc1cc(SC(NC=O)C(Cl)(Cl)Cl)ncn1` (stereo unspecified), the inhibition was inactive: 3.9%.
For `Cc1cc(SC(NC(=O)c2ccccc2)C(Cl)(Cl)Cl)nc(C(C)C)n1` (stereo unspecified), the inhibition was inactive: -3.8%.
`CCCCOc1ccc(C(=O)NCC2(N3CCCCC3)CCCCC2)cc1OC` was tested, and the inhibition was inactive: -9.1%.
For `COc1ccccc1OP(C)(=O)Nc1c(C)cccc1C` (stereo unspecified), the inhibition was inactive: -10%.
In the case of `CN1CCCCC1COC(=O)C1(O)c2ccccc2CCc2ccccc21` (stereo unspecified), the inhibition was inactive: 5.8%.
`O=P1(Nc2ncccn2)COc2ccccc2OC1` was tested, and the inhibition was inactive: 4.2%.
With `Cc1ccc(OCC(=O)OC2CN3CCC2CC3)cc1` (stereo unspecified) the inhibition was inactive: -6.3%.
In the case of `O=[As](O)(c1cccs1)c1cccs1`, the inhibition was inactive: -3.4%.
For `O=P1(Nc2ccc(Br)cn2)COc2ccccc2OC1`, the inhibition was inactive: -7.7%.
In the case of `CCCOc1ccc(NP(C)(=O)Oc2ccc(Cl)cc2)cc1` (stereo unspecified), the inhibition was inactive: 3.6%.
With `Nc1cccc([As](=O)(O)c2ccccc2)c1` the inhibition was inactive: 3.4%.
For `CP(=O)(Nc1ccc(SC(F)(F)F)cc1)Oc1ccccc1` (stereo unspecified), the inhibition was inactive: -13.1%.
In the case of `COc1cc(C2NCCC3(OCCO3)C2(C)C)cc(OC)c1OC.O=[N+]([O-])c1cc([N+](=O)[O-])c(O)c([N+](=O)[O-])c1` (stereo unspecified), the inhibition was inactive: -7.5%.
For `CC1CCC(C(C)C)C(OP(=O)(Nc2ccccn2)c2ccccc2)C1` (stereo unspecified), the inhibition was inactive: -5.9%.
With `Cc1ccc(C(=O)OC2CN3CCC2CC3)cc1` (stereo unspecified) the inhibition was inactive: -2.3%.
In the case of `Cc1nn(-c2ccccc2)c2c1P(=O)(N1CCOCC1)N(C)C(c1ccccc1)=N2` (stereo unspecified), the inhibition was inactive: 5.7%.
For `O=C(/C=C/c1ccccc1)OC1CN2CCC1CC2` (stereo unspecified), the inhibition was inactive: -1.7%.
With `CCOC(=O)C(CC)C1=NC(C)(C)Cc2ccccc21.O=[N+]([O-])c1cc([N+](=O)[O-])c(O)c([N+](=O)[O-])c1` (stereo unspecified) the inhibition was inactive: 3.9%.
With `CN(C)C1(CNC(=O)c2ccc(S(C)(=O)=O)cc2)CCCCC1` the inhibition was inactive: 4.7%.
For `O=[N+]([O-])c1cc([N+](=O)[O-])c(Nc2nnnn2CCO)c([N+](=O)[O-])c1`, the inhibition was inactive: 9.4%.
`Cc1nc2ccc3ccccc3c2s1.O=[N+]([O-])c1cc([N+](=O)[O-])c(O)c([N+](=O)[O-])c1` was tested, and the inhibition was inactive: -6.2%.
For `O=[As](O)(c1ccccc1Br)c1ccccc1Br`, the inhibition was inactive: 0.8%.
With `CC(C)/C=N\N=C(\N)N[N+](=O)[O-]` the inhibition was inactive: 6.1%.
`CN(C(=O)Cc1ccc(Cl)c(Cl)c1)[C@@H]1CCCC[C@H]1N1CCCC1` was tested, and the inhibition was inactive: 1.6%.
With `CCOP(=O)(Nc1ccc(C)cn1)OCC` the inhibition was inactive: 4.7%.
With `O=[N+]([O-])c1cc([N+](=O)[O-])c(-n2nnc3ccccc32)c([N+](=O)[O-])c1` the inhibition was inactive: 6.8%.
For `CCOP(=O)(NC(=NC(C)c1ccccc1)NC(C)c1ccccc1)OCC` (stereo unspecified), the inhibition was inactive: -1.8%.
For `CCC1=CC2Cc3nc4ccc(Cl)cc4c(N)c3C(C1)C2` (stereo unspecified), the inhibition was inactive: -8.9%.
With `CC(C)(C)C(=O)NC(Sc1ncccn1)C(Cl)(Cl)Cl` (stereo unspecified) the inhibition was inactive: -7.3%.
In the case of `Clc1n[nH]nc1-c1nn[nH][15n]1`, the inhibition was inactive: 5.5%.
`Cc1ccc(C)c(NP(C)(=O)Oc2ccccc2)c1` (stereo unspecified) was tested, and the inhibition was inactive: 6.8%.
With `CCCOP(=S)(Nc1nc(N)cc(=O)[nH]1)OCCC` the inhibition was inactive: 7.6%.
For `Cc1ccc(NCCc2c([N+](=O)[O-])cc([N+](=O)[O-])cc2[N+](=O)[O-])cc1`, the inhibition was inactive: 43.1%.
`Cc1cc(C)cc(OP(C)(=O)Nc2ccccn2)c1` (stereo unspecified) was tested, and the inhibition was inactive: -3.1%.
`CP(=O)(Nc1cccc(Br)c1)Oc1ccccc1` (stereo unspecified) was tested, and the inhibition was inactive: -1.5%.
In the case of `CCOP(=O)(Nc1cccc2ccccc12)OCC`, the inhibition was inactive: 0.6%.
With `COc1ccccc1OP(C)(=O)Nc1cccc(Br)c1` (stereo unspecified) the inhibition was inactive: -3.6%.
For `CS(=O)(=O)c1ccc(Cl)c(NC(=O)COC(=O)C(O)(c2ccccc2)c2ccccc2)c1`, the inhibition was inactive: 3.8%.
With `O=[As](O)(O)c1cccnc1` the inhibition was inactive: -6%.
In the case of `COc1cc(C(=O)NCC2(N3CCOCC3)CCCCC2)cc(Cl)c1OC(C)C`, the inhibition was inactive: -8.1%.
`O=C(OC1CN2CCC1CC2)c1ccc(Cl)cc1` (stereo unspecified) was tested, and the inhibition was inactive: -4.1%.
With `CCOC(=O)c1ccc(NP(C)(=O)Oc2cc(C)cc(C)c2)cc1` (stereo unspecified) the inhibition was inactive: 4%.
In the case of `Cc1cc(C)cc(OP(C)(=O)Nc2ccc(C)cc2C)c1` (stereo unspecified), the inhibition was inactive: -2.5%.
With `Cc1cccc(OCC(=O)OC2CN3CCC2CC3)c1` (stereo unspecified) the inhibition was inactive: -7.6%.
For `O=[As](O)(c1cccc(O)c1)c1cccc(O)c1`, the inhibition was inactive: 1.2%.
For `NC(=O)Nc1ccc([As](=O)(O)O)cc1`, the inhibition was inactive: -13.2%.
With `CC1=NCCc2c1[nH]c1ccccc21.O=[N+]([O-])c1cc([N+](=O)[O-])c(O)c([N+](=O)[O-])c1` the inhibition was inactive: -2.2%.
For `O=[N+]([O-])c1ccc2c(c1)nnn2O`, the inhibition was inactive: 10.2%.
`CCOP1(=S)c2c(C)nn(CCC#N)c2N=C(c2ccc(F)cc2)N1C` (stereo unspecified) was tested, and the inhibition was inactive: -2.6%.
`CN(C(=O)Cc1ccccc1)[C@@H]1CC[C@]2(CCCO2)C[C@H]1N1CCCC1` was tested, and the inhibition was inactive: -2.9%.
`O=P(Nc1nccs1)(Oc1ccccc1)Oc1ccccc1` was tested, and the inhibition was inactive: -0.7%.
`O=P(Nc1nccs1)(c1ccccc1)c1nc2ccccc2s1` (stereo unspecified) was tested, and the inhibition was inactive: 1.7%.
With `CCOP1(=S)c2c(C)nn(CCC#N)c2N=C(c2ccccc2F)N1C` (stereo unspecified) the inhibition was inactive: -5.8%.
For `O=C(O)c1cccc(Nc2c([N+](=O)[O-])cc([N+](=O)[O-])cc2[N+](=O)[O-])c1`, the inhibition was inactive: 11.7%.
`Nc1ccccc1[As](=O)(O)c1ccccc1` was tested, and the inhibition was inactive: -3.1%.
`O=C(O)COc1ccc([As](=O)(O)O)cc1[N+](=O)[O-]` was tested, and the inhibition was inactive: -5%.
